Test results taken from PubChem BioAssay (NCI).
The entries are a selection whose mix differs from that of the whole data set. Some salts and complexes are drawn in separate pieces, as the source files them; their charges need not balance. The source holds several records for some structures; these can differ, active in one and inactive in another. Activity calls are given as the source filed them. No stated cut-off is given here; in the data, active means growth inhibition above about 70%; inactive means the rest.

Test: NCI Yeast Anticancer Drug Screen. Data for the mlh1 strain (AID 171);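 further: 0% = growth of vehicle-treated control cultures of the same strain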
Conditions: S. cerevisiae mlh1 strain growth inhibition, stronger effect = higher value
Description: Growth inhibition of yeast strains with defined genetic alterations is measured as a screen for potential anti-cancer activity. Selected strains with alterations in DNA damage repair or cell cycle control were exposed to compounds and growth inhibition was measured relative to vehicle treated controls. The strain used in this assay is mlh1

Compound	growth inhibition (at 1.2 µM)	growth inhibition (at 3.7 µM)	growth inhibition (at 11.0 µM)	growth inhibition (at 33.0 µM)	growth inhibition (at 100.0 µM)
Cc1ccc2ccc3ccc4ccccc4c3c2c1.O=C1c2cc([N+](=O)[O-])ccc2-c2c1cc([N+](=O)[O-])cc2[N+](=O)[O-]	inactive: -1%	inactive: 1%	inactive: 5%	inactive: 11%	inactive: 24%
[Au+].[N-]=[N+]=N.c1ccc([PH+](c2ccccc2)c2ccccc2)cc1	inactive: 9%	active: 86%	active: 99%	active: 94%	active: 87%
COc1ccccc1N.O=[N+]([O-])c1cc([N+](=O)[O-])cc([N+](=O)[O-])c1	inactive: -1%	inactive: 12%	inactive: 52%	active: 99%	active: 99%
Cc1cc2ccccc2cc1C.O=[N+]([O-])c1cc([N+](=O)[O-])cc([N+](=O)[O-])c1	inactive: 1%	inactive: 1%	inactive: 7%	inactive: 15%	inactive: 65%
O=[N+]([O-])C(F)(COCC(O)CO)[N+](=O)[O-] (stereo not given)	inactive: -8%	inactive: -21%	inactive: -10%	inactive: 45%	active: 91%
[Au].[C-]#N.[C-]#N	inactive: -16%	inactive: -7%	inactive: -7%	inactive: 3%	inactive: 11%
[Au+].[Au+].c1ccc([PH+](c2ccccc2)c2ccccc2)cc1.c1ccc([PH+](c2ccccc2)c2ccccc2)cc1.n1n[n-]c(-c2nnn[n-]2)n1	inactive: 12%	inactive: 33%	active: 96%	active: 99%	active: 99%
Nc1ccccc1.O=[N+]([O-])c1cc([N+](=O)[O-])cc([N+](=O)[O-])c1	inactive: 2%	inactive: 9%	inactive: 47%	active: 99%	active: 99%
